The entries are a selection whose mix differs from that of the whole data set. Results filed as inconclusive are left out. Calls of active or inactive are those of the source. The call rests on the fitted dose curve; in most records, active means well fitted activation curve with a large enough effect; inconclusive means small, poorly fitted or top-dose-only effect, or another doubt; inactive means no such curve, though single readings can be large or run the other way.

From PubChem BioAssay AID1508624 (National Center for Advancing Translational Sciences (NCATS), 2021) come the findings set out here.

This test can be described thus: Primary qHTS for Identification of Small Molecule Activators of Huntingtin-Antisense Promoter Activity. Further: nearly all actives have a fitted effect of over 55% in size. Particulars: HEK293 HTT-AS promoter firefly luciferase reporter, 24 h, percent change from vehicle, -100% = no light; at 57.5 µM (top of the series). From the text:
Assay Provider: Russell L. Margolis M.D.
Department Neurology, Johns Hopkins University School of Medicine, Baltimore, MD
Huntington's Disease (HD) is a neurodegenerative disorder caused by a CAG repeat expansion in exon 1 of huntingtin (HTT). While there are currently no disease-modifying treatments for HD, recent efforts have focused on development of nucleotide-based therapeutics to lower HTT expression. As an alternative to siRNA or oligonucleotide methods, we hypothesized that suppression of HTT expression might be accomplished by small molecules that either (1) directly decrease HTT expression by suppressing HTT promoter activity or (2) indirectly decrease HTT expression by increasing the promoter activity of HTT-AS, the gene antisense to HTT that appears to inhibit expression of HTT.
We developed and employed a high throughput screen for modifiers of HTT and HTT-AS promoter activity using luminescent reporter HEK293 cells; of the 52,041 compounds tested, we identified 898 replicable hits. We used a rigorous stepwise approach to assess compound toxicity and the capacity of the compounds to specifically lower huntingtin protein in 5 different cell lines, including HEK293 cells, HD lymphoblastoid cells, mouse primary neurons, HD iPSCs differentiated into cortical-like neurons, and HD hESCs. We found no compounds which were able to lower huntingtin without lowering cell viability in all assays, though the potential efficacy of a few compounds at non-toxic doses could not be excluded.
SEQUENCE No. (1, 2, 3, etc.); […] (e.g., Cells, Incubation, Reagent, etc.); VALUE and DESCRIPTION.
1; Reagent; 4 uL; 2,500 Hek293 luciferase reporter cells per wells
3; Compound; 23 nL; Control inhibitor / compound library
5; Reagent; 2.5 uL; Firefly Luc reagent; Dual-Glo Luciferase Reporter Assay System (Promega)
6; Time; 10 min; room temperature incubation
7; Detection; Luminescence; FLuc
NOTES (numbers refer to sequence above)
1; High-throughput screening, measuring luminescence from a Hek293 luciferase reporter, was performed in 1,536 well white-walled tissue-culture treated plates. 2,500 cells were plated in 4 µL of Opti-MEM per well using a Multidrop Combi Reagent Dispenser (ThermoFisher).
2; Assay plates were cultured for 24 hours.
3; Control inhibitor (PTC124; final concentration of 50 uM) and compound library (at final concentrations of 460 nM - 57.5 uM) were added to the assay plate using the Kalypsis Pintool Robotic System equipped with 1536 pinheads.
4; Cells were then incubated for 24 hours at 37 degrees C prior to luminescence measurements.
5; In all cases, luminescence was measured using the Dual-Glo Luciferase Reporter Assay System (Promega) following the manufacturer's instructions.
6; Room temperature incubation.
7; Luminescence signal was obtained using the PerkinElmer ViewLux plate reader. Results were normalized to vehicle control (0% activity) and zero RLU (-100% activity).
A general note: Quantitative high-throughput screening tests each substance at several concentrations.
Regarding `CN(C)C1(CNC(=O)c2ccc(C(C)(C)C)cc2)CCCCC1`, the activity change, positive = activation is inactive: -5.59%.
The same measure for `Cc1ccccc1C(=O)NCC1(N(C)C)CCCCC1`: inactive: -5.81%; for `CC(C)(C)c1ccc(C(=O)NCC2(N3CCOCC3)CCCCC2)cc1`: inactive: -24.9%.
The same measure for `COc1cc(C(=O)NCC2(N3CCOCC3)CCCCC2)cc(OC)c1OC`: inactive: -8.95%.
Regarding `CCC(=O)N(c1ccccc1)C1CCNCC1`, the activity change, positive = activation was inactive: -9.89%.
As for `O=C(NCC1(N2CCOCC2)CCCCC1)c1ccccc1[N+](=O)[O-]`, the activity change, positive = activation is inactive: -8.97%.
Consider `O=C(NCC1(N2CCOCC2)CCCCC1)c1ccc([N+](=O)[O-])cc1`, for which the activity change, positive = activation was inactive: -8.24%.
Turning to `O=C(NCC1(N2CCOCC2)CCCCC1)c1ccccc1`, the activity change, positive = activation was inactive: -10.9%.
The same measure for `CCOc1ccc(C(=O)NCC2(N3CCOCC3)CCCCC2)cc1`: inactive: -11.3%; for `CCCOc1cccc(C(=O)NCC2(N3CCOCC3)CCCCC2)c1`: inactive: -24.9%; for `CCCCOc1ccccc1C(=O)NCC1(N2CCOCC2)CCCCC1`: inactive: -28.7%.
The same measure for `O=C(NCC1(N2CCOCC2)CCCCC1)c1ccccc1Br`: inactive: -15.2%.
Turning to `CCOC(=O)N1CCC(=O)CC1`, the activity change, positive = activation was inactive: -0.145%.
The same measure for `COc1ccccc1C(=O)NCC1(N2CCOCC2)CCCCC1`: inactive: -3.91%; for `O=C(NCC1(N2CCOCC2)CCCCC1)c1ccc(Cl)cc1`: inactive: -9.26%; for `CCOC(=O)C(=O)CBr`: inactive: -16.8%.
